The values that follow are results of earlier work, collected in patent publication US6321750A, “Condom lubricants with zinc salts as anti-viral additives” (priority 1999, dated 2001).

The conditions of the data set: water; cited from earlier work.

As for Zinc gluconate, the Molar solubility was 280 mM and the Solubility is reported as 127 grams/liter.
